What was measured:
[1] = biological target: Androgen receptor (Homo sapiens, UniProt P10275); assay: Displacement of [3H[DHT from androgen receptor endogenously expressed in human MDA-MB-453 cells; type: cell-based
[2] = biological target: T1, Androgen receptor (Rattus norvegicus, UniProt P15207); assay: Agonist activity at rat androgen receptor expressed in mouse skeletal muscle C2C12 cells assessed as transcriptional activation after 24 hrs by androgen-specific response element driven luciferase reporter gene assay; type: functional, cell-based
T1 sequence (P15207 whole entry): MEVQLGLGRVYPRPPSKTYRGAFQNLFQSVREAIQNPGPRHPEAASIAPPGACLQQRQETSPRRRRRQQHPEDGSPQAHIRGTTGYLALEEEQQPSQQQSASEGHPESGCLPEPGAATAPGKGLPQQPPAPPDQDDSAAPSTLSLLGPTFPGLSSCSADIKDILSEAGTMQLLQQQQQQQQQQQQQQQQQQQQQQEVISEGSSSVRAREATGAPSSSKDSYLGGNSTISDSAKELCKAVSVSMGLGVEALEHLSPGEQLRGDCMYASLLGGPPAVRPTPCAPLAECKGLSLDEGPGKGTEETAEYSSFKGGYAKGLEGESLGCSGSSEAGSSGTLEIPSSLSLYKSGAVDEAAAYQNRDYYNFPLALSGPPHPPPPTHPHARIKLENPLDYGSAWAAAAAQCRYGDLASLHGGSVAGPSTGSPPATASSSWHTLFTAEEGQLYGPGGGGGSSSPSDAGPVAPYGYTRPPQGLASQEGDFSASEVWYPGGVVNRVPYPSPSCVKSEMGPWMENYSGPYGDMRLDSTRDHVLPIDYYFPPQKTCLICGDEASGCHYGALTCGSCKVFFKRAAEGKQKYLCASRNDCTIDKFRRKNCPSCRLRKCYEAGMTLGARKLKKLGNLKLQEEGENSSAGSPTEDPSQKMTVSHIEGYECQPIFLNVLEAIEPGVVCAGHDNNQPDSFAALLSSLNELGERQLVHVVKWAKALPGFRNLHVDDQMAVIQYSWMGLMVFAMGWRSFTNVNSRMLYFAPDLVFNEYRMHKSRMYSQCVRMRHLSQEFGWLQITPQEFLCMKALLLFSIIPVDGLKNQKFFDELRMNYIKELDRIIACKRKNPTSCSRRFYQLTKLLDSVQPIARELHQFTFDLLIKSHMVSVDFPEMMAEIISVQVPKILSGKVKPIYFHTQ

Q: Which Ki [1] does the source give for `Cc1c(N2C(=O)N3CC[C@H](O)[C@H]3[C@@H]2C)ccc(C#N)c1Cl` here?
A: 1.6 nM

Q: What about the EC50 [2] of the same molecule?
A: 5.4 nM

Source: ChEMBL document CHEMBL1138465, “N-aryl-oxazolidin-2-imine muscle selective androgen receptor modulators enhance potency through pharmacophore reorientation” (J Med Chem, 2009)
